The structures appear in SMILES notation.

In experiment [1] the test system is DNA synthesis in L 1210 Cells. The experiment in a line: Inhibition of DNA synthesis in L 1210 Cells. The note with it: read-out: Leukemia L-1210 Cells Inhibition of Synthesis ED50, DNA. Format: cell-based, mouse.
Experiment [2] has as its system RNA synthesis in L 1210 Cells. The experiment in a line: Inhibition of RNA synthesis in L 1210 Cells. In kind it is cell-based, mouse. As to conditions: read-out: Leukemia L-1210 Cells Inhibition of Synthesis ED50, RNA.

`COc1cccc2c1C(=O)c1c(O)c3c(c(O)c1C2=O)C[C@@](O)(C(O)CO)C[C@@H]3O[C@H]1C[C@H](N2CCOCC2C#N)[C@H](O)[C@H](C)O1` (stereo partly shown) [NSC 360291, 3'-deamino-3'-(3"-cyano-4"-morpholinyl)-13-dihydrodoxorubicin]: the IC50 in experiment [1] worked out at 0.021 µM. Same read-out and setting: for `COc1cccc2c1C(=O)c1c(O)c3c(c(O)c1C2=O)C[C@@](O)(C(=O)CO)C[C@@H]3O[C@H]1C[C@H](N2CCOCC2C#N)[C@H](O)[C@H](C)O1` (stereo partly shown) [NSC 357704, 3'-deamino-3'-(3"-cyano-4"-morpholinyl)doxorubicin] the value was 0.003 µM. As for `COc1cccc2c1C(=O)c1c(O)c3c(c(O)c1C2=O)C[C@@](O)(C(=O)CO)C[C@@H]3O[C@H]1C[C@H]2[C@H](OC3COCC(C#N)N32)[C@H](C)O1` (stereo partly shown), the IC50 in experiment [1] amounted to 1.7 µM; in experiment [2] it was 0.48 µM.
